The values that follow come from patent US12465607B2, “ALK inhibitors for treatment of ALK-negative cancer and plasma cell-mediated diseases” (UNIVERSITETET I OSLO, priority 2019, dated 2025).

Amino acid sequences for entries named in this document (tags omitted). Residues count along the entry.
UniProt P29376, 17-864: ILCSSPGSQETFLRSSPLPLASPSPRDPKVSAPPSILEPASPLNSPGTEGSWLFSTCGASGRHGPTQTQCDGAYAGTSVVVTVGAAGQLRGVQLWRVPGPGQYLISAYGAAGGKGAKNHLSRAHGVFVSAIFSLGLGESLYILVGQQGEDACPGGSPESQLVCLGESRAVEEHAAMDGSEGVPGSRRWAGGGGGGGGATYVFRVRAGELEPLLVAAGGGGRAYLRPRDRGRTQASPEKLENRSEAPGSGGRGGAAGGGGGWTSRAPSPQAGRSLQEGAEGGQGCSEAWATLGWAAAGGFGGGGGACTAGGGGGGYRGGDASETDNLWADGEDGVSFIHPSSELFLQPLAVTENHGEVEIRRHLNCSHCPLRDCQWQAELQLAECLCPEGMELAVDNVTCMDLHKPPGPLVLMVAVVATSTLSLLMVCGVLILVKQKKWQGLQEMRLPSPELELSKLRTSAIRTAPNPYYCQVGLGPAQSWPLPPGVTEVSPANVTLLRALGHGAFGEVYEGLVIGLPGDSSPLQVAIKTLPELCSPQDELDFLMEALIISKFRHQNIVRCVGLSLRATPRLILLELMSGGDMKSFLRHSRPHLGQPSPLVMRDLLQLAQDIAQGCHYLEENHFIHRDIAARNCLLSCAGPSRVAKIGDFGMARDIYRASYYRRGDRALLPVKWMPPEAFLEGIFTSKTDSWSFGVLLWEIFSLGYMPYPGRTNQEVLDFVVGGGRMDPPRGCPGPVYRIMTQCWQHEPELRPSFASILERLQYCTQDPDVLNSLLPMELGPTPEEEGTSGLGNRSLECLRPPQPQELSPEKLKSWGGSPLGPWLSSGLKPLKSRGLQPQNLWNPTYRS

In this assay the target is T1, LTK (Homo sapiens, UniProt P29376).
T1 construct: expressed in transfected cells; host or cells: HeLa cells
As to the kind of experiment: LTK inhibition: immunoblot of phosphorylated LTK in cells expressing LTK. Type of assay: cell-based. The conditions noted are these: FIG. 5A: HeLa cells expressing flag-tagged LTK, 1 μM, 30 minutes. As to the method:
Cells were washed twice with PBS and collected in lysis buffer (50 mM Tris-HCl, pH7.4; 1 mM EDTA, 100 mM NaCl, 0.1% SDS and 1% NP-40) supplemented with proteinase and phosphatase inhibitor (Pierce Protease and Phosphatase Inhibitor Mini Tablets, EDTA-free). Lysates were incubated on ice for 10 minutes followed by clearing centrifugation at 20,000×g at 4° C. for 10 min. Supernatants were transferred into fresh tubes and reducing loading buffer was added. Lysates were subjected to SDS-PAGE and transferred onto a nitrocellulose membrane using semi-dry transfer. The membrane was blocked (in ROTI buffer (Roth) or 5% milk in PBS with 0.1% tween) and probed with the appropriate primary antibodies. Subsequently membranes were incubated with horseradish peroxidase-conjugated secondary antibody. Immunoblots were developed using a chemiluminescence reagent (ECL clarity, BioRad) and imaged using ChemiDoc (BioRad).
Background: A western blot detects proteins with antibodies after separation by electrophoresis.

Take `C[C@H]1Oc2cc(cnc2N)-c2c(nn(C)c2C#N)CN(C)C(=O)c2ccc(F)cc21` [lorlatinib]: the “inhibition of LTK” value is recorded as “not to have activity in inhibition of LTK”.
